The DC50 is the midpoint of the concentration-degradation curve.

This assay concerns the target BRD4 (Homo sapiens, UniProt O60885). The experiment in a line: BRD4 degradation assay in EOL1 cells (immunofluorescence imaging). The note with it: read-out: BRD4 degradation in EOL1 cells (DC50); EoL-1 eosinophilic leukemia cells, 4 hours treatment, nuclear BRD4 immunofluorescence. The procedure:
BRD4 Degradation Assay in EOL1 Cells
EoL-1 eosinophilic leukemia cells were seeded on day 1 at a density of 45,000 cells per well in Corning PureCoat Amine Microplates, (Corning #354719) in 45 μL/well of assay media (RPMI, 10% FBS, containing L-glutamine). After cells attached to cell plate, compounds were serially diluted ⅓ in dimethylsulfoxide (DMSO) to create 20-point dilutions across a 384 well v-bottom polypropylene microplate (Greiner #781091). 2 μL of each sample from the serial dilution was transferred to 98 μL of assay media as an intermediate dilution. 5 μL of each well of the intermediate dilution was added to 45 μL of cell plate. Columns 1, 2, 23 and 24 were treated with only 0.2% final concentration of DMSO for data normalization as “neutral controls”. After compound treatment, cell plates were stored in a 37° C. incubator for 4 hours. […]
On day-2 samples were washed 3 times with 100 μL/well of PBS. […] Quantitative fluorescence imaging of BRD4 was carried out using an Opera Phenix High-Content Screening System. […] Mean 488 intensity of BRD4 quantitated in nuclear region. […]
The individual topological polar surface area (TPSA) and cLogP values were calculated using Chemdraw v. […]

Where only a bound is given, the exact number is not on record here.

For `Cc1sc2c(c1C)C(c1ccc(Cl)cc1)=N[C@@H](CC(=O)NC[C@H]1NC(=O)CNC(=O)C(C)(C)NC(=O)[C@@H]3C[C@@H](O)CN3C(=O)[C@H](C(C)(C)C)NC(=O)CSC[C@H](C(N)=O)NC1=O)c1nnc(C)n1-2`, the DC50 is less than 1 µM. Consider `Cc1ncsc1-c1ccc([C@@H]2NC(=O)[C@@H]3C[C@@H](O)CN3C(=O)[C@H](C(C)(C)C)NC(=O)CCOCCNC(=O)[C@@H](CNC(=O)C[C@@H]3N=C(c4ccc(Cl)cc4)c4c(sc(C)c4C)-n4c(C)nnc43)NC(=O)CNC2=O)cc1`, for which the DC50 was greater than 20 µM.

For the origin of these results see US12187816B2, “Macrocyclic compounds and methods of use thereof” (Genentech, Inc., priority 2020, dated 2025).
